The record followed here is US9464084B2, “P2X7 modulators” (Janssen Pharmaceutica NV, priority 2013, dated 2016).

Amino acid sequences for entries named in this document (tags omitted). A change or cut given only in a name is not applied to a line headed by its entry.
UniProt Q64663: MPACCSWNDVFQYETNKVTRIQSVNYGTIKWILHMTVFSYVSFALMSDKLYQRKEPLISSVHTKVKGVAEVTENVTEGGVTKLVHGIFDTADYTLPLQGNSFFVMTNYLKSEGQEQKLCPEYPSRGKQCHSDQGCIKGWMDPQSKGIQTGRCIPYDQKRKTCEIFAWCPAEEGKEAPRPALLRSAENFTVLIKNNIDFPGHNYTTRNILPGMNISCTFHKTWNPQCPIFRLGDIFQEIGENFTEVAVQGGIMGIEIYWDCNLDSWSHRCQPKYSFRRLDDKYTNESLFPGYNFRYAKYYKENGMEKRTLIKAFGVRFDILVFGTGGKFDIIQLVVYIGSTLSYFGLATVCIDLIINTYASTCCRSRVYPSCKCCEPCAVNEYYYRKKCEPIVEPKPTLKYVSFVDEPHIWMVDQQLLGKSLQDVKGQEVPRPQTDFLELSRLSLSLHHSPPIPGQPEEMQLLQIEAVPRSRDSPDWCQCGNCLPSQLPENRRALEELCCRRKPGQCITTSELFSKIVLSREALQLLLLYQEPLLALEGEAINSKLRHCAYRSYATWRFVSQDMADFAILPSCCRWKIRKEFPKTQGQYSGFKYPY
UniProt Q99572: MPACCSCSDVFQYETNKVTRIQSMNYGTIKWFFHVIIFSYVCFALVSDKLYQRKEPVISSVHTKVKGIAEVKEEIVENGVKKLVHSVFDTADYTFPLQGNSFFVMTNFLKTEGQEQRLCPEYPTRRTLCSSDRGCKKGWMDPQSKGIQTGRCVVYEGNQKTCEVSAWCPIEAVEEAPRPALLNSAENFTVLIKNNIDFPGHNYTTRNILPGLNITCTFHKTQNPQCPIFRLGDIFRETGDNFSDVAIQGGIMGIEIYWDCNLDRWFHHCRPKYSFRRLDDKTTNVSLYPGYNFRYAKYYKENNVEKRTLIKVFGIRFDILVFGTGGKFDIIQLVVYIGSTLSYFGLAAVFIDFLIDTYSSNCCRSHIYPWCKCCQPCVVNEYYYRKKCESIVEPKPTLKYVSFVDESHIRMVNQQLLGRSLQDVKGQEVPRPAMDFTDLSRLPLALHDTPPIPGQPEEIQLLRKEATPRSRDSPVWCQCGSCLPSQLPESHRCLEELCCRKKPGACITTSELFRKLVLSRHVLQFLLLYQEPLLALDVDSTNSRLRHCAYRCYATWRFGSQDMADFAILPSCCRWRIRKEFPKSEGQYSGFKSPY

Experiment [1] deals with rat P2X7 (Rattus norvegicus (Rat), UniProt Q64663). Nature of the experiment: Ca2+ flux (FLIPR) in 1321N1 cells expressing recombinant rat P2X7 channel.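 Note: Calcium-4 dye fluorescence change read 180 s after agonist addition, following 30 min cell preincubation with test compound.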 It is filed as cell-based. The following applies: 250 μM BzATP. In general terms: Calcium flux is commonly read through the fluorescence of an indicator in the cells.
Experiment [2] addresses T1, P2X7 (Homo sapiens (Human), UniProt Q99572). Nature of the experiment: Ca2+ flux (FLIPR) in 1321N1 cells expressing recombinant human P2X7 channel.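 Note: Calcium-4 dye-loaded cells exposed to compound for 30 min before agonist addition, fluorescence change read 180 s after agonist.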 The following applies: 250 μM BzATP. It is filed as cell-based.
Experiment [3] addresses T1, P2X7. Nature of the experiment: Radioligand binding, tritiated A-804598, human P2X7-1321N1 cell membranes.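 Note: ki obtained from the binding IC50 after correction for tracer concentration and tracer affinity.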 The following applies: 1 hour at 4° C.

Structures are written as SMILES. A value given as a limit tells only on which side of the number the result lay.

As to `Cc1cccnc1-n1nnc2c1CCN(C(=O)c1cccc(C(F)(F)F)c1Cl)[C@H]2C` (single isomer, unassigned) [Example 292, (S*)-(2-chloro-3-(trifluoromethyl)phenyl)(4-methyl-1-(3-methylpyridin-2-yl)-6,7-dihydro-1H-[1,2,3]triazolo[4,5-c]pyridin-5(4H)-yl)methanone], the IC50 (commonly the concentration at which inhibition is half-maximal) in experiment [1] was above 10 µM; in experiment [2] it was 10.4 µM.

With `C[C@H]1c2nnn(-c3cc(F)ccn3)c2CCN1C(=O)c1cccc(C(F)(F)F)c1Cl` (single isomer, unassigned) [Example 149, (S*)-(2-Chloro-3-(trifluoromethyl)phenyl)(1-(4-fluoropyridin-2-yl)-4-methyl-6,7-dihydro-1H-[1,2,3]triazolo[4,5-c]pyridin-5(4H)-yl)methanone], the results for the IC50 in experiment [1] and in experiment [2] were 17.3 µM and 2.49 µM, respectively.

Consider `CC1c2ncn(-c3ccc(F)cn3)c2CCN1C(=O)c1ccc(F)c(Cl)c1Cl` (centres unmarked) [Example 261, (2,3-dichloro-4-fluorophenyl)(1-(5-fluoropyridin-2-yl)-4-methyl-6,7-dihydro-1H-imidazo[4,5-c]pyridin-5(4H)-yl)methanone], for which the IC50 in experiment [1] amounted to 1.23 µM.

For the compound `COc1ccc(-n2nnc3c2CCN(C(=O)c2cccc(C(F)(F)F)c2Cl)C3C)nc1` (centres unmarked) [Example 145, (2-Chloro-3-(trifluoromethyl)phenyl)(1-(5-methoxypyridin-2-yl)-4-methyl-6,7-dihydro-1H-[1,2,3]triazolo[4,5-c]pyridin-5(4H)-yl)methanone], the IC50 in experiment [1] was 13.8 µM.

Regarding `C[C@H]1c2nnn(-c3ncc(F)cn3)c2CCN1C(=O)c1cccc(C(F)(F)F)c1F` (single isomer, unassigned) [Example 178, (S*)-(2-fluoro-3-(trifluoromethyl)phenyl)(1-(5-fluoropyrimidin-2-yl)-4-methyl-6,7-dihydro-1H-[1,2,3]triazolo[4,5-c]pyridin-5(4H)-yl)methanone], the IC50 in experiment [1] is 0.118 µM; in experiment [2], 0.0051 µM.

In the case of `O=C(c1cccc(C(F)(F)F)c1Cl)N1CCc2c(ncn2-c2cnccn2)C1` [Example 6, (2-Chloro-3-(trifluoromethyl)phenyl)(1-(pyrazin-2-yl)-6,7-dihydro-1H-imidazo[4,5-c]pyridin-5(4H)-yl)methanone], the IC50 in experiment [1] was determined as 1.78 µM.

For `C[C@@H]1c2nnn(-c3ncc(F)cn3)c2CCN1C(=O)c1cccc(C(F)(F)F)c1F` (single isomer, unassigned) [Example 190, (R*)-(2-fluoro-3-(trifluoromethyl)phenyl)(1-(5-fluoropyrimidin-2-yl)-4-methyl-6,7-dihydro-1H-[1,2,3]triazolo[4,5-c]pyridin-5(4H)-yl)methanone], the IC50 in experiment [1] came out at 1.29 µM; in experiment [2] it was 1.56 µM.

On to `CC1c2nnn(-c3ncco3)c2CCN1C(=O)c1cccc(C(F)(F)F)c1Cl` (centres unmarked) [Example 250], for which the half-maximal inhibitory concentration (IC50) in experiment [1] turned out to be 0.67 µM.

Consider `Cc1c(C(=O)N2CCc3c(ncn3-c3ccc(F)cn3)C2)cccc1C(F)(F)F` [Example 312, (1-(5-fluoropyridin-2-yl)-6,7-dihydro-1H-imidazo[4,5-c]pyridin-5(4H)-yl)(2-methyl-3-(trifluoromethyl)phenyl)methanone], for which the IC50 in experiment [1] came out at 8.67 µM.

For the compound `O=C(c1cccc(C(F)(F)F)c1F)N1CCc2c(nc(C(F)(F)F)n2-c2ccccc2)C1` [Example 57, 5-{[2-Fluoro-3-(trifluoromethyl)phenyl]carbonyl}-1-phenyl-2-(trifluoromethyl)-4,5,6,7-tetrahydro-1H-imidazo[4,5-c]pyridine], in experiment [1], the IC50 worked out at 0.22 µM.

For the compound `O=C(c1cccc(C(F)(F)F)c1Cl)N1CCc2c(nnn2-c2ccccc2OCCF)C1` [Example 126, (2-Chloro-3-(trifluoromethyl)phenyl)(1-(2-(2-fluoroethoxy)phenyl)-6,7-dihydro-1H-[1,2,3]triazolo[4,5-c]pyridin-5(4H)-yl)methanone], in experiment [1], the IC50 was found to be 1.41 µM.

For the compound `O=C(c1cccc(Cl)c1Cl)N1CCc2c(ncn2-c2ccn[nH]2)C1` [Example 60, 5-[(2,3-Dichlorophenyl)carbonyl]-1-(1H-pyrazol-5-yl)-4,5,6,7-tetrahydro-1H-imidazo[4,5-c]pyridine], the half-inhibitory concentration (IC50) in experiment [1] was 1.65 µM.

On to `CC1CN(C(=O)c2cccc(Cl)c2Cl)Cc2nnn(-c3ccc(F)cc3)c21` (centres unmarked) [Example 247, (2,3-Dichlorophenyl)(1-(4-fluorophenyl)-7-methyl-6,7-dihydro-1H-[1,2,3]triazolo[4,5-c]pyridin-5(4H)-yl)methanone], for which the IC50 in experiment [1] amounted to 8.2 µM.

For `Cc1nc2c(n1-c1ccccc1)CCN(C(=O)c1cccc(Cl)c1Cl)C2` [Example 331, (2,3-dichlorophenyl)(2-methyl-1-phenyl-6,7-dihydro-1H-imidazo[4,5-c]pyridin-5(4H)-yl)methanone], in experiment [1], the half-inhibitory concentration (IC50) is 4.3 µM.

Consider `COc1ccnc(-n2nnc3c2CCN(C(=O)c2cccc(C(F)(F)F)c2Cl)[C@@H]3C)c1` (single isomer, unassigned) [Example 152, (S*)-(2-Chloro-3-(trifluoromethyl)phenyl)(1-(4-methoxypyridin-2-yl)-4-methyl-6,7-dihydro-1H-[1,2,3]triazolo[4,5-c]pyridin-5(4H)-yl)methanone], for which the IC50 in experiment [1] is 1.98 µM; in experiment [2], 0.98 µM.

With `O=C(c1cccc(C(F)(F)F)c1Cl)N1CCc2c(ncn2-c2ccccc2)C1CO` (centres unmarked) [Example 30, (5-{[2-Chloro-3-(trifluoromethyl)phenyl]carbonyl}-1-phenyl-4,5,6,7-tetrahydro-1H-imidazo[4,5-c]pyridin-4-yl)methanol], the values for the IC50 in experiment [1] and in experiment [2] were 6.14 µM and 1.37 µM, respectively.

For `O=C(OCC1c2ncn(-c3ccccc3)c2CCN1C(=O)c1cccc(C(F)(F)F)c1Cl)c1cccc(C(F)(F)F)c1Cl` (centres unmarked) [Example 36, (5-{[2-Chloro-3-(trifluoromethyl)phenyl]carbonyl}-1-phenyl-4,5,6,7-tetrahydro-1H-imidazo[4,5-c]pyridin-4-yl)methyl 2-chloro-3-(trifluoromethyl)benzoate], the IC50 in experiment [1] was found to be 10.1 µM.

Consider `Cn1nc(-c2ccc(F)cc2)c2c1CN(C(=O)c1cccc(Cl)c1Cl)CC2` [Example 109, 6-[(2,3-Dichlorophenyl)carbonyl]-3-(4-fluorophenyl)-1-methyl-4,5,6,7-tetrahydro-1H-pyrazolo[3,4-c]pyridine], for which the IC50 in experiment [1] stood at 3.16 µM.

Turning to `Cc1ccnc(-n2nnc3c2CCN(C(=O)c2cccc(C(F)(F)F)c2Cl)[C@@H]3C)c1` (single isomer, unassigned) [Example 185, (R*)-(2-chloro-3-(trifluoromethyl)phenyl)(4-methyl-1-(4-methylpyridin-2-yl)-6,7-dihydro-1H-[1,2,3]triazolo[4,5-c]pyridin-5(4H)-yl)methanone], the IC50 in experiment [1] came to 0.0195 µM.

In the case of `O=C(c1cccc(C(F)(F)F)c1Cl)N1CCc2c(nnn2-c2cccc(F)n2)C1` [Example 135, (2-Chloro-3-(trifluoromethyl)phenyl)(1-(6-fluoropyridin-2-yl)-6,7-dihydro-1H-[1,2,3]triazolo[4,5-c]pyridin-5(4H)-yl)methanone], the IC50 in experiment [1] came out at 1.38 µM.

For `Cc1c(C(=O)N2CCc3c(ncn3-c3ccc(F)cn3)C2C)cccc1C(F)(F)F` (centres unmarked) [Example 263, (1-(5-fluoropyridin-2-yl)-4-methyl-6,7-dihydro-1H-imidazo[4,5-c]pyridin-5(4H)-yl)(2-methyl-3-(trifluoromethyl)phenyl)methanone], in experiment [1], the IC50 was 1.25 µM.

As to `C[C@@H]1Cc2c(nnn2-c2ncc(F)cn2)CN1C(=O)c1ccc(F)c(Cl)c1Cl` (single isomer, unassigned) [Example 214, (6R*)-5-[(2,3-Dichloro-4-fluorophenyl)carbonyl]-1-(5-fluoropyrimidin-2-yl)-6-methyl-4,5,6,7-tetrahydro-1H-[1,2,3]triazolo[4,5-c]pyridine], the IC50 in experiment [1] came to 46.2 µM; in experiment [2], 8.49 µM.

As for `O=C(c1ccc(Cl)cc1Cl)N1CCc2c(ncn2-c2ccc(F)cn2)C1` [Example 313, (2,4-dichlorophenyl)(1-(5-fluoropyridin-2-yl)-6,7-dihydro-1H-imidazo[4,5-c]pyridin-5(4H)-yl)methanone], the IC50 in experiment [1] amounted to 24.7 µM.

`Cc1ccnc(-n2nnc3c2CCN(C(=O)c2cccc(C(F)(F)F)c2Cl)[C@H]3C)c1` (single isomer, unassigned) [Example 186, (S*)-(2-chloro-3-(trifluoromethyl)phenyl)(4-methyl-1-(4-methylpyridin-2-yl)-6,7-dihydro-1H-[1,2,3]triazolo[4,5-c]pyridin-5(4H)-yl)methanone]: the IC50 in experiment [1] came out at 11.7 µM.

For `Cc1ccnc(-n2nnc3c2CCN(C(=O)c2cccc(C(F)(F)F)c2Cl)C3C)c1` (centres unmarked) [Example 299, (2-chloro-3-(trifluoromethyl)phenyl)(4-methyl-1-(4-methylpyridin-2-yl)-6,7-dihydro-1H-[1,2,3]triazolo[4,5-c]pyridin-5(4H)-yl)methanone], the IC50 in experiment [1] is 0.0127 µM.

For the compound `C[C@@H]1c2ncn(-c3ccccn3)c2CCN1C(=O)c1cccc(C(F)(F)F)c1F` (single isomer, unassigned) [Example 42, (4R*)-5-{[2-Fluoro-3-(trifluoromethyl)phenyl]carbonyl}-4-methyl-1-pyridin-2-yl-4,5,6,7-tetrahydro-1H-imidazo[4,5-c]pyridine], the Ki – broadly, the equilibrium dissociation constant of an inhibitor or competing ligand from its target – in experiment [3] is 0.0398 µM. Besides, in experiment [2], the IC50 is 0.0557 µM.

For the compound `O=C(c1cccc(C(F)(F)F)c1Cl)N1CCc2c(-c3ccc(F)cc3)n[nH]c2C1` [Example 110, 6-{[2-Chloro-3-(trifluoromethyl)phenyl]carbonyl}-3-(4-fluorophenyl)-4,5,6,7-tetrahydro-2H-pyrazolo[3,4-c]pyridine], in experiment [1], the IC50 came to 1.26 µM.

For the compound `CC1c2ncn(-c3ccccn3)c2CCN1C(=O)c1cccc(C(F)(F)F)c1F` (centres unmarked) [Example 19, (2-Fluoro-3-(trifluoromethyl)phenyl)(4-methyl-1-(pyridin-2-yl)-6,7-dihydro-1H-imidazo[4,5-c]pyridin-5(4H)-yl)methanone], in experiment [3], the Ki stood at 0.1 µM. Moreover, the IC50 in experiment [2] was 0.0352 µM.

With `CC1CN(C(=O)c2cccc(Cl)c2Cl)Cc2nnn(-c3ccccc3)c21` (centres unmarked) [Example 244, (2,3-Dichlorophenyl)(7-methyl-1-phenyl-6,7-dihydro-1H-[1,2,3]triazolo[4,5-c]pyridin-5(4H)-yl)methanone], the IC50 in experiment [1] turned out to be 13.5 µM.
